Data reported in patent US20220305093A1, “NK-LYSIN PEPTIDE COMPOSITIONS AND METHODS FOR THEIR USE AS ANTIMICROBIAL/ANTIVIRAL AGENTS” (priority 2021, published 2022).
Converted amounts (≈) assume the structure as drawn. Where two headings read alike, the source gives them in different places.

What was measured:
[1] = tested on: Escherichia coli (ATCC 11775)
Description: (§1) The minimum inhibitory concentration (MIC) is defined as the lowest concentration of an antimicrobial ingredient or agent that is bacteriostatic (prevents the visible growth of bacteria).
(§2) Mueller Hinton broth (MHB) comprising 0.01% v/v acetic acid (Sigma Aldrich; St Louis, Mo.) and 0.2% w/v bovine serum albumin (Sigma Aldrich). Equal concentrations of bacteria were plated in wells of standard tissue culture microplates at a density of 0.5×10^8 CFU ml^−1 in MHB per well. Treatments were equivalent volumes (50 μl) of NK-lysin peptides in concentrations of 0 to 150 μg/ml, or no NK-lysin peptides for control wells. The treated plates were incubated at […] and optical densities were determined for each well at 0 minutes, 1, 2 and 3 hours and after an overnight incubation.

[2] = tested on: Klebsiella oxytoca (ATCC 49131)
Description: as §1, §2

[3] = tested on: Klebsiella pneumoniae (patient isolate)
Description: as §1, §2

[4] = tested on: Pseudomonas aeruginosa (ATCC 9027)
Description: as §1, §2

[5] = tested on: Salmonella typhimurium (ATCC 14028); conditions: for reduction of bacterial survival: 15 μg/ml
Description: as §1, §2

[6] = tested on: Shigella sonnei (ATCC 25931); conditions: Sh. sonnei ATCC 25931
Description: as §1, §2

[7] = tested on: Streptococcus mutans (isolate)
Description: as §1, §2

[8] = tested on: Streptococcus pyogenes (ATCC 19615)
Description: as §1, §2

[9] = tested on: S. typhimurium (ATCC 14028); assay: Colony count assays; assay type: cell-based, Salmonella typhimurium; conditions: 70 μg/ml
Description: Antimicrobial activity of NK-lysin peptides was assayed in cultures of S. typhimurium (ATCC 14028). The bacteria were maintained in tryptic soy broth at 3TC and were grown to the mid-logarithmic phase prior to testing. To determine the activity of NK-lysin peptides, colony count assays were carried out. Bacteria were pelleted and then re-suspended in a 10 mM sodium phosphate buffer pH 7.0 and then diluted to a density of (2×10^6 CFU ml^−1 in MHB. 50 μl of NK-lysin peptide were combined with an equal volume of bacterial culture and incubated at room temperature for 3 hours. A 1 μl sample of each culture was then diluted by 1000 (in 1 ml) and spread over MH agar plates. Colonies were counted after 24 hours at room temperature to determine the bacteria that survived.

[10] = tested on: Salmonella typhimurium (ATCC 14028); assay: Growth kinetic activity at 2×MIC; assay type: cell-based
Description: The kinetic killing abilities of NK-lysin peptides were gauged in accordance with the Clinical Laboratory and Standard Institute (CLSI) broth micro-dilution technique presented by Wiegand and Hancock (2008). Mueller Hinton broth comprising 0.01% v/v acetic acid was prepared with 0.2% w/v bovine serum albumin, as above. Aerobic incubation of bacterial cells diluted to 0.5×10^8 CFU ml^−1 in MHB was carried out in microplates with the same volume (50 μl) of 2×MIC concentration of NK-lysin peptides. The plate was then incubated at room temperature. […] A distinct triplicate was used to repeat the kinetic potential of NK-lysin peptides thrice.

[11] = tested on: S. typhimurium (ATCC 14028); assay type: cell-based, Salmonella typhimurium
Description: Screening of NK-lysin peptides was carried out against gram-negative S. typhimurium (ATCC 14028) bacteria. Overnight cultivation of the bacteria was carried out at a temperature of 3TC. A bacterial suspension was created in 10 mM sodium phosphate buffer pH 7.0 having a density of (2×10^6 CFU ml^−1) and plated on Muller-Hinton (MH) agar plates to inoculate. After the plates were dry, antibiotics discs of various concentrations (0 to 150 μg/ml) of antibiotic or NK-lysin peptides were applied to the surface of the inoculated plates. The plates were cultured overnight at 3TC and observed for restriction of growth by determining the diameter of bacterial-free zones surrounding each disc. Ceftazidime antibiotic was employed as a positive control.

[12] = tested on: Salmonella typhimurium (ATCC 14028); assay: Combination of NK-lysin peptide and silver nanoparticles, micro-dilution growth inhibition; assay type: cell-based; conditions: 1, 2, 3 and 24 hours
[13] = tested on: Salmonella typhimurium (ATCC 14028); assay: Combination of NK-lysin peptide and human IL-2, micro-dilution growth inhibition; assay type: cell-based; conditions: over 24 hours; IL-2 2 ng/ml, peptide 1×MIC
Description: The standard micro-dilution technique was used to measure the least-inhibitory concentration of NK-lysin peptide and Human IL-2 individually. This method was also used to measure the least-inhibitory concentration of the NK-lysin peptide mixed with IL-2. The 1×MIC of NK-lysin peptide against each bacterial strain was mixed with IL-2 (2 ng/ml).

[14] = tested on: Salmonella typhimurium (ATCC 14028); assay: Bacterial lytic potential (OD600 ratio); assay type: cell-based; conditions: OD600 (1.0)
Description: An assay described by Carson et al. (supra) was used with modifications to determine lytic potential of each NK-lysin. Screening of bacterial lytic potential of human and bovine NK-lysin peptides was carried out using two distinct bacterial inoculums, O.D600 (0.5) and O.D600 (1.0). Equal volumes of NK-lysin peptides (1×MIC) were combined with bacterial suspensions and plated in wells of microplates. The microplate was subsequently incubated at room temperature. A BioTek Instruments plate reader was used to measure the OD of each well of the microplate at various time intervals. NK-lysin peptides of corresponding concentrations in PBS were utilized as blanks. A ratio of OD600 nm at each time interval to the OD600 nm at 0 minutes was calculated and expressed as a percentage. Bacterial Membrane Damage with Fluorescent Microscopy Salmonella typhimurium membrane damage was determined by incubating 6.5×10^6 CFU of Salmonella typhimurium with 2×MIC of NK-lysin peptides in 10 mM phosphate buffer pH 7.0 at room temperature for one hour. Bacterial cells were stained with DAPI and PI for 1 hour, after which 10 μl of stained solution was added to a glass slide in a dark area. Slides were cover-slipped and examined by fluorescent microscopy (Nikon, Carl Zeiss; Oberkochen, Germany) was used to observe the membranes and detect any damage to the S. typhimurium membranes. Detection of Beta-Lactamase Enzymes after NK-Lysin Peptides Challenge

Rotavirus (strain SA-11) = assay type: cell-based
Description: Rotavirus (strain SA-11) was activated with 10 μg/mL trypsin before propagation on MA-104 cells derived from kidney cells of African […] monkey. MA-104 cells were cultivated in tissue culture flasks in the presence of less than 5% CO2 at 37° C. in Dulbecco's Minimal Essential Medium (DMEM) (Sigma-Aldrich) The DMEM included 1% antibiotic antimycotic solution and 10% heat inactivated fetal bovine serum (A5955, Sigma-Aldrich). Centrifugation of rotavirus was performed at 300×g for 5 mins in order to purify by removal of cell debris. The supernatant was utilized as a stock suspension of virus after filtration through 0.2 μm membrane. The stock virus contained 10^6-10^7 TCID50 per mL and was stored at −80° C. for future use.
In order to activate infectivity, rotavirus was placed in a solution of 10 μg/mL trypsin at 37° C. for 30 min. A 100 μl aliquot of the activated rotavirus sa-11 was mixed with and equal volume of 80 μg/ml NK-lysin peptides for a final rotavirus concentration of 1×10^6 TCID50/ml. The rotavirus and NK-lysin peptide mixture was first incubated for at 37° C. for 1 hour. Serial dilutions of rotavirus and rotavirus+peptide mixtures were prepared. Aliquots 100 μl of the 10-fold serial dilutions were then added to 96-well tissue culture plates comprising monolayers of MA-104 cells at a density of approximately 5.0×10^4 cells per well. Eight wells were used for each sample to make sure sufficient assay precision was achieved. The microplates were incubated for 5 days at 37° C. under 5% CO2 atmosphere. During the 5-day incubation, cells were monitored daily under a microscope to check for a cytopathic effect (CPE). A tissue culture infectious dose (TCID) was the infectious dose/mL of tissue culture equal to 50 percent of wells showing CPE at a specific dilution and was expressed as the TCID50 for that dilution. The highest dilutions in which 50% or higher wells were read as the TCID50.

[15] = tested on: gram-positive and gram-negative bacteria; conditions: all bacterial strains tested
From the text: The gram-positive bacterial strains utilized were Streptococcus pyogenes (ATCC 19615) and Streptococcus mutans (isolate obtained from a patient at King Abdul-Aziz hospital). The gram-negative bacterial strains used included Salmonella typhimurium (ATCC 14028), Escherichia coli (ATCC 11775), Pseudomonas aeruginosa (ATCC 9027), Klebsiella oxytoca (ATCC 49131), Shigella sonnei (ATCC 25931), and Klebsiella pneumoniae (patient isolate). Tryptic soy broth (TSB) was used to grow all bacterial strain overnight, after which the bacteria were washed using phosphate-buffered saline (PBS, NaCl 8 g/L, KCl 0.2 g/L, Na2HPO4 1.4 g/L, KH2PO4 0.24 g/L), and then diluted in the same buffer with 1/1000 TSB to an OD600 nm of 0.08-0.1 (1×10^8) colony-forming units (CFU)/ml, which was determined after performing retrospective plate counts on tryptic soy agar. Unless otherwise noted, the experiments in the following examples employed this inoculum preparation apart from when minimum inhibitory and bactericidal concentrations were determined, which employed cells in Muller Hinton broth. […]
Mueller Hinton broth (MHB) comprising 0.01% v/v acetic acid (Sigma Aldrich; St Louis, Mo.) and 0.2% w/v bovine serum albumin (Sigma Aldrich). […] The treated plates were incubated at […] and optical densities were determined for each well at 0 minutes, 1, 2 and 3 hours and after an overnight incubation. […]

[16] = 80 μg/ml peptide, Rotavirus (SA-11)

SMILES: CSCC[C@H](NC(=O)[C@H](Cc1ccccc1)NC(=O)[C@H](CC(N)=O)NC(=O)[C@H](CCCNC(=N)N)NC(=O)[C@H](CS)NC(=O)[C@@H](NC(=O)[C@H](CC(=O)O)NC(=O)[C@H](CCCNC(=N)N)NC(=O)[C@H](Cc1c[nH]c2ccccc12)NC(=O)[C@H](CCCNC(=N)N)NC(=O)[C@H](CO)NC(=O)[C@H](CCCNC(=N)N)NC(=O)CNC(=O)[C@@H](NC(=O)[C@H](CCCNC(=N)N)NC(=O)[C@H](CS)NC(=O)[C@@H](NC(=O)[C@H](CCCNC(=N)N)NC(=O)[C@@H](NC(=O)[C@H](C)NC(=O)[C@H](C)NC(=O)[C@H](CC(N)=O)NC(=O)[C@H](CO)NC(=O)[C@@H](NC(=O)[C@H](CO)NC(=O)[C@H](CCCNC(=N)N)NC(=O)[C@H](CCC(N)=O)NC(=O)[C@@H](NC(=O)[C@@H]1CCCN1)[C@@H](C)O)C(C)C)[C@@H](C)O)C(C)C)[C@@H](C)O)C(C)C)C(=O)N[C@@H](CCCNC(=N)N)C(=O)O [Human NK-lysin]
- MBC [1]: 25 ± 0.012 µg/mL (≈ 7.01 µM)
- MIC [1]: 15 ± 0.014 µg/mL (≈ 4.2 µM)
- MBC [2]: 15 ± 0.012 µg/mL (≈ 4.2 µM)
- MIC [2]: 15 ± 0.012 µg/mL (≈ 4.2 µM)
- MBC [3]: 15 ± 0.040 µg/mL (≈ 4.2 µM)
- MIC [3]: 15 ± 0.040 µg/mL (≈ 4.2 µM)
- MBC [4]: 15 ± 0.010 µg/mL (≈ 4.2 µM)
- MIC [4]: 15 ± 0.010 µg/mL (≈ 4.2 µM)
- reduction of bacterial survival ([5]; second hour of exposure): more than 60%
- reduction of bacterial survival ([5]; third hour of exposure): > 50%
- killing ([5]; ATCC 14028, 15 μg/ml): 82%
- MBC ([5]; S.typhimrium ATCC 14028): 70 ± 0.092 µg/mL (≈ 19.6 µM)
- MIC ([5]; S.typhimrium ATCC 14028): 15 ± 0.090 µg/mL (≈ 4.2 µM)
- MIC [6]: 15 ± 0.025 µg/mL (≈ 4.2 µM)
- MBC [7]: 25 ± 0.012 µg/mL (≈ 7.01 µM)
- MIC [7]: 15 ± 0.010 µg/mL (≈ 4.2 µM)
- MBC [8]: 25 ± 0.010 µg/mL (≈ 7.01 µM)
- MIC [8]: 15 ± 0.00 µg/mL (≈ 4.2 µM)
- decrease of bacteria growth [9]: 4.6 fold
- growth of Salmonella typhimurium ([10]; 2×MIC, 2 hr): less than 40%
- growth of Salmonella typhimurium ([10]; 2×MIC, 3 hr): less than 40%
- bacterial growth ([10]; 2×MIC, after incubation for 4 hr): less than 25%
- growth of Salmonella typhimurium ([10]; 2×MIC, first hour): 30%
- reduction of Salmonella typhimurium growth ([10]; after 4 hours): approximately 75%
- clear zone diameter [11]: 21 mm
- antibacterial activity [12]: effective at suppressing or inhibiting growth
- antibacterial activity [13]: inhibited growth
- bacterial survivability ([14]; 1 hour): 27%
- bacterial survivability ([14]; 2 hours): 34%
- bacterial survivability ([14]; 3 hours): 35%
- Log10TCID50/ml (Rotavirus (strain SA-11); [16]): 6.00
- TCID50/ml (Rotavirus (strain SA-11); [16]): 1.00 × 10^6 TCID50/ml
- % reduction (Rotavirus (strain SA-11); 80 μg/ml peptide, versus initial titre): 49%
- inhibition of infection / infectivity (Rotavirus (strain SA-11); Rotavirus (strain SA-11)): 50%
- MIC [15]: 15 µg/mL (≈ 4.2 µM)
